# Experimental data as given in patent US20260258049A1, “Molecules and Methods Related to Treatment of Uncontrolled Cellular Proliferation” (ST. JUDE CHILDREN'S RESEARCH HOSPITAL, priority 2019, published 2026).
# Protein sequences, listed by entry. Tags and fused reporters are not part of them.
# UniProt P15170, whole entry: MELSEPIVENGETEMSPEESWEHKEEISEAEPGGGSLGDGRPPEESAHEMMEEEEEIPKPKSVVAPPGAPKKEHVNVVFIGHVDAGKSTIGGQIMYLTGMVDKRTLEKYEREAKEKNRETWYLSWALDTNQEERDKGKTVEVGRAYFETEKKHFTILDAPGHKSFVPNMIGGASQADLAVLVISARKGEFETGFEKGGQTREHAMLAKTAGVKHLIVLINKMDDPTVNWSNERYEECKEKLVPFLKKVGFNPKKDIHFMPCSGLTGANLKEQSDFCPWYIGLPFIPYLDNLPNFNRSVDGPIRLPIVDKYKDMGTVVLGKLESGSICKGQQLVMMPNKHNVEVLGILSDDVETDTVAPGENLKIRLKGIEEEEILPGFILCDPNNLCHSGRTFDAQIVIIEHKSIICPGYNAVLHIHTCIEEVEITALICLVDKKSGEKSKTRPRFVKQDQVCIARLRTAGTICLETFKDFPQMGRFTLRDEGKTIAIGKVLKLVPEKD
# Key:
# MHH-CALL-4-CRBN-KD = test: Cytotoxicity assay in CRBN knockdown cells; assay type: cell-based, human
# Janus kinases and GSPT1 = test: In vivo pharmacodynamics, immunoblotting; settings: 10, 30, and 100 mg/kg i.p., 2 daily doses
# MHH-CALL-4 = test: Cytotoxicity assay (resazurin, 72 hours); assay type: cell-based, human
# GSPT1 = GSPT1 (Homo sapiens, UniProt P15170); test: Immunoblot protein degradation in MHH-CALL-4 cells; assay type: cell-based
# [1] = In vivo pharmacokinetic (PK) study; settings: 30 and 100 mg/kg intraperitoneal
# CRLF2r B-ALL xenograft = test: Xenograft in vivo preclinical efficacy study; design: species or system mouse
# [2] = test system: JAK2 and STAT5 phosphorylation; test: In vivo pharmacodynamics, phosphoflow cytometry; settings: 10, 30, and 100 mg/kg i.p., 2 daily doses
# [3] = test system: JAK-STAT5 signaling pathway; test: Phosphoflow analysis in MHH-CALL-4 cells with or without TSLP; settings: 1 μM, one hour before TSLP 25 ng/mL for 30 minutes
smiles,measurement,setting,value
CCCn1cc(-c2nc(Nc3ccc(C(=O)NCCCCNc4cccc5c4C(=O)N(C4CCC(=O)NC4=O)C5=O)cc3)nc3[nH]ccc23)cn1 (centres unmarked) [SJ000988497],activity on CRISPR/Cas9 knockdown of CRBN,MHH-CALL-4-CRBN-KD,abolished
same,JAK/GSPT1 degradation in vivo,Janus kinases and GSPT1,near maximal at the 30 mg/kg dose
same,activity on co-treatment with 30 μM of lenalidomide,MHH-CALL-4,abolished
same,"fold activity compared to each of the parent compounds, ruxolitinib and pomalidomide",MHH-CALL-4; CRLF2r MHH-CALL-4 cells,"greater than 70,000 fold"
same,EC50,"MHH-CALL-4; read-out: HHCALL4 (nM), MHHCALL4 EC50, Table 6, no star",812 nM
same,extent of degradation of GSPT1,GSPT1,degradation of GSPT1 was observed
same,plasma concentration after 24 hours,[1],well above the compounds cellular EC50 value
same,"tolerability (weight, blood counts)",CRLF2r B-ALL xenograft; 28-day period,well tolerated with no weight loss or perturbation in blood counts
same,spleen size and tumor burden in PDX model,CRLF2r B-ALL xenograft; compound 7 30 mg/kg i.p. daily,reduced spleen size and tumor burden
same,JAK2 and STAT5 phosphorylation in vivo,[2],dose dependent inhibition
same,JAK inhibition (phosphoflow),[3],comparable JAK inhibition
